# scFv variants of Ab-14 (heavy chain) against a SARS-CoV-2 spike peptide

Source: Engelhart et al. 2022 (doi:10.1038/s41597-022-01779-4), MIT Lincoln Laboratory and A-Alpha Bio; data file from the FLAb repository.

Target: peptide PDVDLGDISGINAS, taken from heptad repeat 2 (HR2) of SARS-CoV-2 spike.

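The starting antibody came from a phage panning campaign against this peptide. The library (AAYL49) carries one to three amino acid substitutions per variant, with no insertions or deletions. Affinity was read by AlphaSeq, a pooled yeast mating assay with surface-displayed partners. After mating in shaken culture at 30 °C for 16 h, diploids were selected and their barcode pairs sequenced. A regression on co-assayed BCL2-family reference pairs converts the normalised counts of each replicate to an apparent Kd. Mating was done three times.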

Parent scFv Ab-14: VH joined to VL by the linker GGGGSGGGGSGGGGS. Changes lie in the heavy chain CDRs alone.
VH: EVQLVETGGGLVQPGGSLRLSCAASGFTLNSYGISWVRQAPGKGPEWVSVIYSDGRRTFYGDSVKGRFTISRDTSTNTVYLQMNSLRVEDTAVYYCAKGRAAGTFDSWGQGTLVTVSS
VL: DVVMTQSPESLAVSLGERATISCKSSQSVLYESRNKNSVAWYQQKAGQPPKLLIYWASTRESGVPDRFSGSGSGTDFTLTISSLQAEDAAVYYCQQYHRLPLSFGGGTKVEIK

Positions count from residue 1 of the parent VH; I51E puts E in place of I. All variants listed here change A102 of the VH, counted from its first residue. The Kd shown is the geometric mean over detected replicates; a lower Kd is a better binder. "nd" means that the variant was in the library but no mating with the target was seen in any replicate; the authors take this as a sign of poor binding, and no number exists. Background: pairings of library AAYL49 with three empty control strains gave a value in 15% of cases (median 11 µM, 5th percentile 680 nM). Values in that range, when seen in few replicates, are hard to tell from nonspecific mating. Also given: how often the same scFv was detected with the empty control strains. In this assay the parent's reference entry averaged 4.4 nM; its copy inside this library read 13 µM (one replicate of three).

For I51E/A102F/S107M, the assay gave nd (0 of 3 replicates; controls 0 of 9).
For S31F/K65L/A102I, the assay gave 150 µM (1 of 3 replicates; controls 3 of 9).
For T28K/A102K/T104I, the assay gave 23 nM (3 of 3 replicates; controls 0 of 9).
For L29G/A102C/F105I, the assay gave nd (0 of 3 replicates; controls 1 of 9).
For I51G/K65F/A102K, the assay gave 24 µM (2 of 3 replicates; controls 3 of 9).
For N30H/Y52G/A102R, the assay gave 5.6 µM (1 of 3 replicates; controls 1 of 9).
For F27G/I51N/A102H, the assay gave nd (0 of 3 replicates; controls 0 of 9).
For G99H/A102G, the assay gave nd (0 of 3 replicates; controls 1 of 9).
For T28I/A102H/F105H, the assay gave nd (0 of 3 replicates; controls 0 of 9).
For T58R/A102S/D106R, the assay gave nd (0 of 3 replicates; controls 0 of 9).
For K65I/A102H/D106F, the assay gave 1.5 µM (1 of 3 replicates; controls 1 of 9).
For D62S/S63D/A102M, the assay gave 400 nM (3 of 3 replicates; controls 3 of 9).
For V50S/A102K/S107P, the assay gave nd (0 of 3 replicates; controls 0 of 9).
For A102G/F105S, the assay gave 30 µM (2 of 3 replicates; controls 4 of 9).
For Y32R/D62S/A102C, the assay gave nd (0 of 3 replicates; controls 0 of 9).
For T28F/G61S/A102V, the assay gave nd (0 of 3 replicates; controls 3 of 9).
For F27L/A102E, the assay gave nd (0 of 3 replicates; controls 2 of 9).
For S31R/A101K/A102R, the assay gave nd (0 of 3 replicates; controls 0 of 9).
For V64H/A102W/G103P, the assay gave nd (0 of 3 replicates; controls 2 of 9).
For I51S/R56C/A102M, the assay gave 100 µM (1 of 3 replicates; controls 2 of 9).
For G55L/T58C/A102G, the assay gave 31 µM (1 of 3 replicates; controls 2 of 9).
For T58N/A102Y/F105K, the assay gave 1.5 µM (1 of 3 replicates; controls 1 of 9).
For S63R/A102H/T104E, the assay gave nd (0 of 3 replicates; controls 0 of 9).
For I34E/A101M/A102I, the assay gave 4.6 µM (1 of 3 replicates; controls 0 of 9).
For S35F/D54M/A102V, the assay gave nd (0 of 3 replicates; controls 0 of 9).
For I34C/G61N/A102T, the assay gave 27 µM (2 of 3 replicates; controls 5 of 9).
For Y32S/A102N/T104S, the assay gave nd (0 of 3 replicates; controls 2 of 9).
For S63N/V64A/A102R, the assay gave nd (0 of 3 replicates; controls 0 of 9).
For T28D/A102C/S107T, the assay gave 27 µM (1 of 3 replicates; controls 0 of 9).
For T58S/D62K/A102F, the assay gave nd (0 of 3 replicates; controls 0 of 9).
For N30P/S63W/A102Y, the assay gave nd (0 of 3 replicates; controls 1 of 9).
For N30M/G99L/A102I, the assay gave nd (0 of 3 replicates; controls 3 of 9).
For A102F/S107N, the assay gave 340 nM (3 of 3 replicates; controls 2 of 9).
For Y52E/D62L/A102P, the assay gave 1.1 µM (1 of 3 replicates; controls 1 of 9).
For Y32M/A102W/F105Q, the assay gave 540 nM (2 of 3 replicates; controls 1 of 9).
For S35V/T58V/A102H, the assay gave 110 nM (1 of 3 replicates; controls 1 of 9).
For A102G/F105Q, the assay gave nd (0 of 3 replicates; controls 1 of 9).
For G33W/S35G/A102K, the assay gave 290 nM (1 of 3 replicates; controls 1 of 9).
For L29V/V50F/A102R, the assay gave nd (0 of 3 replicates; controls 4 of 9).
For Y60D/K65D/A102L, the assay gave 65 µM (1 of 3 replicates; controls 2 of 9).
For S35V/A102P/S107A, the assay gave 2.7 µM (1 of 3 replicates; controls 2 of 9).
For D54G/R56S/A102I, the assay gave nd (0 of 3 replicates; controls 0 of 9).
For S35P/D54I/A102T, the assay gave nd (0 of 3 replicates; controls 3 of 9).
For D54R/R100S/A102I, the assay gave 1.7 µM (1 of 3 replicates; controls 0 of 9).
For F27R/A102H/F105A, the assay gave 910 nM (3 of 3 replicates; controls 4 of 9).
For Y52M/A102N/D106I, the assay gave 61 µM (2 of 3 replicates; controls 4 of 9).
For D54P/V64G/A102L, the assay gave nd (0 of 3 replicates; controls 0 of 9).
For T58Y/A102D/S107D, the assay gave 1.5 µM (1 of 3 replicates; controls 2 of 9).

The 4 strongest on average among those seen in every replicate, once more:

changes,Kd,replicates with signal,signal with controls
T28K/A102K/T104I,23 nM,3/3,0/9
A102F/S107N,340 nM,3/3,2/9
D62S/S63D/A102M,400 nM,3/3,3/9
F27R/A102H/F105A,910 nM,3/3,4/9